Usually Ki stands for the equilibrium dissociation constant of an inhibitor or competing ligand from its target. A higher Ki goes with weaker binding.

Sequences of proteins named here, by UniProt entry; tags and fusion partners are left off.
UniProt P30551, whole entry: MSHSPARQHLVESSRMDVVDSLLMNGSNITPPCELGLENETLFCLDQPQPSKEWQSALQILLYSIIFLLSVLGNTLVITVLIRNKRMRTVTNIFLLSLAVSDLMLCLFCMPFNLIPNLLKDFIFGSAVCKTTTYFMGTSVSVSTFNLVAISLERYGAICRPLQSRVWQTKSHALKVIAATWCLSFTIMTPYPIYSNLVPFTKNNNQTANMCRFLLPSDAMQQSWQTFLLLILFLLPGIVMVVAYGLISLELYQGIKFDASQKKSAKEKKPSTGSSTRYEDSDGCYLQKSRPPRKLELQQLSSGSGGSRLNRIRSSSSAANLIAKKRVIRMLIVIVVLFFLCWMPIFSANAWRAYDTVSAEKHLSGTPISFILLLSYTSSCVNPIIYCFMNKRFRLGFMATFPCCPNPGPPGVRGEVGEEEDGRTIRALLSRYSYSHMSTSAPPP

One compound from ChEMBL document CHEMBL1125403, “Hybrid cholecystokinin-A antagonists based on molecular modeling of lorglumide and L-364,718” (J Med Chem, 1992) can be followed below.

In the assay the target is Cholecystokinin receptor type A (Rattus norvegicus, UniProt P30551). Description: Displacement of [3H]L-364718 from Cholecystokinin type A receptor of rat pancreatic membranes. Type of assay: cell membranes, Membrane. Put shortly:
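Male Wistar rat pancreas membranes, homogenized in 10 mM Hepes pH 7.4/5 mM MgCl2/130 mM NaCl, stored at -80 °C. GF/B filtration, scintillation counting. Nonspecific binding with 10 μM lorglumide. IC50 from pseudo-Hill plots, Ki by Cheng-Prusoff. Mean ± SEM of three experiments.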

`O=C(NC/C=C/c1ccccc1)c1cc2ccccc2[nH]1` yielded a Ki of 180 nM.
